From patent publication US20250264483A1, “IDENTIFICATION OF PROTHROMBOTIC CONDITIONS” (Sydney Local Health District, priority 2020, published 2025) come the findings set out here.

This test concerns healthy donor platelets. In words: Procoagulant platelet flow cytometry assay, healthy donor whole blood with APS patient plasma. The format is cell-based, human. Conditions: eculizumab 50 μg/mL pre-treatment 15 min. The procedure:
The GSAO-based whole blood PP flow cytometry assay established by the inventors^4 was modified to incorporate patient plasma. Citrated whole blood (13 μL) was incubated with and without agonists, unfractionated heparin (Pfizer) and plasma (5 μL) for 10 minutes with final concentrations of 2.5 mM Gly-Pro-Arg-Pro peptide (Sigma-Aldrich) and 2.5 mM calcium chloride. […] In some experiments, blood was pre-treated with 10 μg/mL IV.3 (StemCell Technologies), a monoclonal antibody against FcγRIIa, for 15 minutes prior to the reaction. Samples were incubated with antibodies to CD45, CD41a, CD62P—or isotype control, and GSAO or GSCA, and fixed before analysis on a BD LSRFortessa X-20.
Citrated whole blood (13 μL) was incubated with platelet agonists and plasma (5 μL) from healthy donors or patients, for 10 minutes with final concentrations of 2.5 mM Gly-Pro-Arg-Pro peptide (Sigma-Aldrich) and 2.5 mM calcium chloride in a 50 μL reaction. […] In some experiments, blood was pre-treated with 50 μg/mL eculizumab (monoclonal antibody against complement protein C5 (Soliris)) for 15 minutes prior to the reaction. […]
In general terms: In flow cytometry, cells or beads pass a laser one at a time.

B1: eculizumab: monoclonal antibody against complement protein C5 (antibody, chains of the INN, looked up)
heavy: QVQLVQSGAEVKKPGASVKVSCKASGYIFSNYWIQWVRQAPGQGLEWMGEILPGSGSTEYTENFKDRVTMTRDTSTSTVYMELSSLRSEDTAVYYCARYFFGSSPNWYFDVWGQGTLVTVSSASTKGPSVFPLAPCSRSTSESTAALGCLVKDYFPEPVTVSWNSGALTSGVHTFPAVLQSSGLYSLSSVVTVPSSNFGTQTYTCNVDHKPSNTKVDKTVERKCCVECPPCPAPPVAGPSVFLFPPKPKDTLMISRTPEVTCVVVDVSQEDPEVQFNWYVDGVEVHNAKTKPREEQFNSTYRVVSVLTVLHQDWLNGKEYKCKVSNKGLPSSIEKTISKAKGQPREPQVYTLPPSQEEMTKNQVSLTCLVKGFYPSDIAVEWESNGQPENNYKTTPPVLDSDGSFFLYSRLTVDKSRWQEGNVFSCSVMHEALHNHYTQKSLSLSLG
light: DIQMTQSPSSLSASVGDRVTITCGASENIYGALNWYQQKPGKAPKLLIYGATNLADGVPSRFSGSGSGTDFTLTISSLQPEDFATYYCQNVLNTPLTFGQGTKVEIKRTVAAPSVFIFPPSDEQLKSGTASVVCLLNNFYPREAKVQWKVDNALQSGNSQESVTEQDSKDSTYSLSSTLTLSKADYEKHKVYACEVTHQGLSSPVTKSFNRGEC
Regarding B1, the “inhibition of hypersensitivity to thrombin induced by APS patient plasma” value is, setting by setting: (plasma collected from plasma exchange (PLEX) (FIG. 15)) “not fully inhibited”; (plasma collected post plasma exchange (Post-PLEX) (FIG. 16)) “not fully inhibited”.
